Experimental findings from PubChem BioAssay AID588674 (Broad Institute, 2011) are described below.

Only a part is listed here, and it is no random draw. Active and inactive are the calls of the source.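 Rule for the calls: active = mean inhibition of at least 75% with every replicate also reaching 75%; inconclusive = mean inhibition at least 75% but some replicate below; inactive = mean inhibition below 75%.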

The inhibition is the share of the control response that was lost under treatment.

A short description of the assay: reduction of Shn3 3'UTR firefly luciferase signal, primary screen, Schnurri-3 inhibitor project, cell-based, Clone20 osteoblasts, set 2 (AID 588674).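 Note: 0% = median of neutral control wells and 100% = pilot-screen positive control compound.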 Conditions: Clone20 osteoblast Shn3 3'UTR firefly luciferase, 24 h; at 12.5 µM; stronger effect = higher value.
Consider `CP(=O)(Nc1ccc2c(c1)OCCO2)Oc1ccccc1` (stereo unspecified), for which the inhibition is inactive: 31.7%.
